Sequences of proteins named here, by UniProt entry; tags and fusion partners are left off.
UniProt P61169, whole entry: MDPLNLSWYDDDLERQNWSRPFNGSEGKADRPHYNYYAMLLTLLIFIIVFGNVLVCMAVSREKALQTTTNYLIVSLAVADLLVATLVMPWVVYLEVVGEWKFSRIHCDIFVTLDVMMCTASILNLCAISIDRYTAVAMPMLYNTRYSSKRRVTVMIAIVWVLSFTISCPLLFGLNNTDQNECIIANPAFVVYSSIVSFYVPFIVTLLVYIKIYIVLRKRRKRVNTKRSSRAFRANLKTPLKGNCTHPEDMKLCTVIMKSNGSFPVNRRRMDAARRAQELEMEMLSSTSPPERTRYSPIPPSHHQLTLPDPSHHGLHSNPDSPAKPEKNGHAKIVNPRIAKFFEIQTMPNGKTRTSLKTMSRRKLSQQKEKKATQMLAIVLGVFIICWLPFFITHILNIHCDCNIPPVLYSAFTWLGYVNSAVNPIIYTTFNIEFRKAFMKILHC

According to ChEMBL document CHEMBL1132700, “Design, synthesis, structure-activity relationships, and biological characterization of novel arylalkoxyphenylalkylamine sigma ligands as potential antipsychotic drugs” (J Med Chem, 1999):

Target: D(2) dopamine receptor (Rattus norvegicus, UniProt P61169)
Assay: Inhibitory concentration against radioligand [3H](-)-sulpiride binding to Dopamine receptor D2 in rat
In short: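 Striatal membranes from male Wistar rats (200–250 g), homogenized in 50 mM Tris/HCl pH 7.7, washed by repeated 50000g spins. Incubated with 15 nM [3H]-sulpiride and at least five concentrations of unlabeled drug. Filtration on PEI-soaked glass-fiber filters, then scintillation counting. IC50 by nonlinear curve fitting, duplicate determinations.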

Which IC50 does the source give for `CN1CCc2cccc3c2[C@H]1Cc1ccc(O)c(O)c1-3` [APOMORPHINE] here?
The IC50 was 5.1 nM.
